Experimental findings from patent US20110034498A1, “DOSING REGIMENS FOR THE TREATMENT OF CANCER” (priority 2006, published 2011) are described below.

Structures are written as SMILES.

The assay has as its system PC-3 cells. Put plainly: mouse PC-3 prostate xenograft model, subcutaneous tumor burden. The assay is classed as in vivo. The note with it: PC-3 xenograft (Example 5); continuous doses 10.6 mg/kg/day, 25 days; versus vehicle. The source says: The results of this experiment are summarized below.

As for `CC1=C2C[C@H]3[C@@H](CC=C4C[C@@H](O)CC[C@@]43C)[C@@H]2CC[C@]12O[C@@H]1C[C@H](C)CN[C@H]1[C@H]2C` [Cyclopamine, reference compound], the “growth of the tumors” value was “significantly reduced”.
